Biological target: PolQ ATPase enzyme (1-894) (Homo sapiens (Human), UniProt O75417)
Assay: Polθ ATPase enzymatic assay (0.5 nM enzyme concentration), ADP-Glo
Conditions: read-out: IC50 (nM) [PolQ] 0.5 nM; average IC50; 0.5 nM PolQ ATPase enzyme (1-894)

Sequences of proteins named here, by UniProt entry; tags and fusion partners are left off. Residues count along the entry.
UniProt O75417, 1-894 limits assumed: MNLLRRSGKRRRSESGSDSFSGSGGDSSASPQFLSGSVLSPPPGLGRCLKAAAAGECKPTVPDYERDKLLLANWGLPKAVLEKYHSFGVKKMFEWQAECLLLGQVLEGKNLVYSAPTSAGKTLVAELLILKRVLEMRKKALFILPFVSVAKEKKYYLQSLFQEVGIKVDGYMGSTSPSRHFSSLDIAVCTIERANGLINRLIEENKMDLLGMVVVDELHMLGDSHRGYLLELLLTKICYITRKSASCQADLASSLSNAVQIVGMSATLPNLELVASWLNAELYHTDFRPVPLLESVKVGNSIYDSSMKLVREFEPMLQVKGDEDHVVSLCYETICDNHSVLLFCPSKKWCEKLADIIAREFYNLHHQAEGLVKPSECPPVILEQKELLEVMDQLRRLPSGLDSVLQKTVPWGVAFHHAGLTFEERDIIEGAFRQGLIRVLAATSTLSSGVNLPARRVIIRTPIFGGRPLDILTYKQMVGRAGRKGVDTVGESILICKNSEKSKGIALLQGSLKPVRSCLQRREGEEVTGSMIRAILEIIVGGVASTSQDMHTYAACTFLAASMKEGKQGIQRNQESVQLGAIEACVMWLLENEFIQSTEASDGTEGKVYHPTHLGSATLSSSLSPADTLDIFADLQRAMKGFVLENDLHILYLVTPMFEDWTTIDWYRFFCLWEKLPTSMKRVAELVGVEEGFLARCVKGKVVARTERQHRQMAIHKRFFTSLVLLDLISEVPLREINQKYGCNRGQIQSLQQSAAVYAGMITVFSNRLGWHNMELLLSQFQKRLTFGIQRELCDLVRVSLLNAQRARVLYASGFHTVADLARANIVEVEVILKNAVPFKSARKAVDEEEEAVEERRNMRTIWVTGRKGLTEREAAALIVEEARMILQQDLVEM

## COc1cnc(C(F)F)cc1-c1cc(-c2ccn(C)n2)ncc1C(=O)Nc1nnc([C@@H]2C[C@H]2c2ccc(Cl)cc2)s1 (relative stereo)
  IC50: 0.55 nM

— US20250026748A1, “N-(5-SUBSTITUTED-[(1,3,4-THIADIAZOLYL) OR (THIAZOLYL)])(SUBSTITUTED)CARBOXAMIDE COMPOUNDS AND USE THEREOF FOR INHIBITING HUMAN POLYMERASE THETA” (Repare Therapeutics Inc., priority 2021, published 2025)
